Measured values: ChEMBL document CHEMBL1132549, “Design and structure-activity relationship of a new class of potent VEGF receptor tyrosine kinase inhibitors” (J Med Chem, 1999)
pIC50: −log10 of the molar value.

Sequences of proteins named here, by UniProt entry; tags and fusion partners are left off.
UniProt P17948, whole entry: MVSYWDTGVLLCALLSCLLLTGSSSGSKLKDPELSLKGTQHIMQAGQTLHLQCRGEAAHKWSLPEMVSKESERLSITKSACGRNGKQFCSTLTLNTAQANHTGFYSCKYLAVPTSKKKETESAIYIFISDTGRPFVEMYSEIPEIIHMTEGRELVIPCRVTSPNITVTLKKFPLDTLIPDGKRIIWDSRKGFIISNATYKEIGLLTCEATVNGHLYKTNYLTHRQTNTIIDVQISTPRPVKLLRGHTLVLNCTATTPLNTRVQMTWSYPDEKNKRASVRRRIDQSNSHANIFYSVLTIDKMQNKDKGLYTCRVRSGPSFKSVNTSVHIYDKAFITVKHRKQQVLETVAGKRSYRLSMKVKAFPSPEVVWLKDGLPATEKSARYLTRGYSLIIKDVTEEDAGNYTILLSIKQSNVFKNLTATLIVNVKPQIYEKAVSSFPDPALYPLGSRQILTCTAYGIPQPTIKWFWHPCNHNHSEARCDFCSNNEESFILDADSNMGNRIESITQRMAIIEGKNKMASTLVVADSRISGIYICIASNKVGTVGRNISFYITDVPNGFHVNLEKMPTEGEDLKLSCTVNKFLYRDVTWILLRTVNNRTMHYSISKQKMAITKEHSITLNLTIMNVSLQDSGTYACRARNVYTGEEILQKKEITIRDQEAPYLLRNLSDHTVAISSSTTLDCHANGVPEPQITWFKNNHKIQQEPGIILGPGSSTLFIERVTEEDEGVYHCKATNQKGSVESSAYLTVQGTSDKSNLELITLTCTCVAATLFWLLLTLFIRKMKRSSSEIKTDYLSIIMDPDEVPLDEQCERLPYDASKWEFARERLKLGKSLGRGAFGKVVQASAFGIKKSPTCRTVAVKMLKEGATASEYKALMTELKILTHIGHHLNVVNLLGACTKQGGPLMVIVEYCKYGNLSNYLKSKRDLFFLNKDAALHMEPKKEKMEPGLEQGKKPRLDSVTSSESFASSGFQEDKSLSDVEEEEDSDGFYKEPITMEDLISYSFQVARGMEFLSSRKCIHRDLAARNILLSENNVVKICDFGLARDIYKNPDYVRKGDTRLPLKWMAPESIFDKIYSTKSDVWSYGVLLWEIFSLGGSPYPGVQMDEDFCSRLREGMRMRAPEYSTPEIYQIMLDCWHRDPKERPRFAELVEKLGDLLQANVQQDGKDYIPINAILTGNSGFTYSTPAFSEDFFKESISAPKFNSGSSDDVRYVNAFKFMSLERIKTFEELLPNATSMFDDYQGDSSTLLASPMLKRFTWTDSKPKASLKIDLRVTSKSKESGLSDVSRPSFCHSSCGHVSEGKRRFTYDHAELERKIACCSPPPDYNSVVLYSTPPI

Molecular target: Vascular endothelial growth factor receptor 1 (Homo sapiens, UniProt P17948)

Q: How did the pIC50 turn out when `COc1cc2ncnc(Nc3ccc(Cl)cc3F)c2cc1OC` was run?
A: 5.70
